Measured values as given in patent US20180296707A1, “PHARMACEUTICAL FORMULATION AND METHOD OF PREPARING THE SAME” (SeeCure Taiwan Co., Ltd., priority 2017, published 2018).

Test system: human colorectal tumor
Conditions: mouse, in vivo, iv
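Also: human colorectal tumors grown on the hind legs of athymic nude mice, imaged by micro-PET/CT 21 to 28 days post inoculation, once tumors reached roughly 0.5 cm across.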

Substance: ^18F-FDG
- average tumor/muscle (T/M) count density ratios, approximate range: 0.8-0.9
